Data on one compound can be found in patent US20250206732A1, “COMPOUNDS AND METHODS FOR THE TARGETED DEGRADATION OF KRAS” (Arvinas Operations, Inc., priority 2022, published 2025).

Chains of the proteins cited; added tags and fusions are not shown. Residues count along the entry.
UniProt P01116, 1-188 isoform 2 G12C: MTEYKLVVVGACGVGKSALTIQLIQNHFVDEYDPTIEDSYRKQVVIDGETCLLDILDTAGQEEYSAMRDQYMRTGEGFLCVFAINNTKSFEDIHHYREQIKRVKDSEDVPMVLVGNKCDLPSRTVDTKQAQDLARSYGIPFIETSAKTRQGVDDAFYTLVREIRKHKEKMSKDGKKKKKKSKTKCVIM
UniProt P01116, 1-188 isoform 2 G12D: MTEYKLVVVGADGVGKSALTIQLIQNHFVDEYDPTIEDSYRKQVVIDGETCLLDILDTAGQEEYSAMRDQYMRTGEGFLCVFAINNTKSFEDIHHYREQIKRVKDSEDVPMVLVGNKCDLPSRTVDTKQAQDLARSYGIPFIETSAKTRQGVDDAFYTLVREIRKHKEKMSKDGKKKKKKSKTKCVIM

Some results are limits rather than exact numbers.

The target of assay [1] is AsPC-1 HiBiT-KRASG12D (Homo sapiens, UniProt P01116, G12D). Nature of the assay: HiBiT degradation assay (G12D), AsPC-1 HiBiT-KRASG12D cells. Particulars: read-out: AsPC-1 HiBiT-KRASG12D DC50, 24 hours treatment, HiBiT luminescence. For orientation: With HiBiT, luminescence reflects the tagged protein that the partner subunit can reach.
The target in assay [2] is SW1573 HiBiT-KRASG12C (Homo sapiens, UniProt P01116, G12C). Put plainly: HiBiT degradation assay (G12C), SW1573 HiBiT-KRASG12C cells. Conditions: read-out: SW1573 HiBiT-KRASG12C DC50, 24 hours treatment, HiBiT luminescence. As for the experimental part:
Reagents. SW1573 (CRL-2170), AsPC-1 (CRL-1682), and SW620 (CCL-227) cells were purchased from ATCC. SW1573 cells are homozygous for the G12C mutation in KRAS, AsPC-1 cells are homozygous for the G12D mutation, and SW620 cells are homozygous for the G12V mutation. SW1573 cells were cultured in DMEM+F12+Glutamax (+Sodium Bicarbonate, +sodium pyruvate, ThermoFisher scientific, #10565) supplemented with 10% FBS (ThermoFisher scientific, #2060357) and 1% Antibiotic-Antimycotic (ThermoFisher scientific, #15240096). […]
HiBiT-tagged cell line generation. […] A luminescent band of the correct size for HiBiT-KRASG12C was detected in several clones. […]
HiBiT degradation assays (G12C and G12D). […] Plates were then allowed to equilibrate to room temperature and fluorescence was measured using a Perkin-Elmer EnVision. After completion of the fluorescence read, the liquid from each well was removed and the cells were washed with PBS. […] Following incubation at room temperature for 45 minutes, the luminescence was read using the ultra-sensitive luminescence aperture on the Envision instrument.
Data analysis. Fluorescence values from the alamar blue treatment were normalized to the DMSO-only control for each compound titration. […]

Consider `CCc1cccc2cc(O)cc(-c3ncc4c(N5CC6CCC(C6)C5)nc(OCCN5CCC(COc6cc([C@H](C(=O)N7C[C@H](O)C[C@H]7C(=O)N[C@@H](C)c7ccc(-c8scnc8C)cc7)C(C)C)on6)CC5)nc4c3F)c12`, for which the 50% degradation concentration (DC50) in assay [1] and in assay [2] was greater than 3 µM each time.

The DC50 is the midpoint of the concentration-degradation curve.
